Source: patent US20170247393A1, “Aminoisoxazoline Compounds as Agonists of Alpha7-Nicotinic Acetylcholine Receptors” (Forum Pharmaceuticals, Inc., priority 2015, published 2017)
Counter-ions that a name gives are not always drawn.

By UniProt entry, the sequences of proteins in these tests, tags left out. Residues count along the entry.
UniProt P36544, 23-502 limits assumed: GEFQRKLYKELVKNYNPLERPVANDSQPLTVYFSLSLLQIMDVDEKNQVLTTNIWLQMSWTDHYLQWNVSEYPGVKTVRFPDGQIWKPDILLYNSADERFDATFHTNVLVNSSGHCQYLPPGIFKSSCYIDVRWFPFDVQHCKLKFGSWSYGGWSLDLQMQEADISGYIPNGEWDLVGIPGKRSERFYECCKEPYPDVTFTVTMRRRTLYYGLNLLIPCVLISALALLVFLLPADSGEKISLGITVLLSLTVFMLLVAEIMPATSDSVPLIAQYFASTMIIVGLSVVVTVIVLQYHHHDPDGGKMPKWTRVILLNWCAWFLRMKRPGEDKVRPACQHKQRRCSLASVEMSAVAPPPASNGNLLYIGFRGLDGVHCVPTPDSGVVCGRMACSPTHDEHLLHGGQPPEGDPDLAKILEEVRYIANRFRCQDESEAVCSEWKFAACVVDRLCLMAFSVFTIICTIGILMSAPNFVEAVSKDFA

molecular target: human α7 nAChR (Homo sapiens, UniProt P36544); test: Human α7 nAChR binding assay ([125I]-αBungarotoxin competition binding, Cerep); conditions: read-out: h- α7 Ki; SH-SY5Y membranes expressing human α7 nAChR, 0.05 nM [125I]-αBgt, 120 min at 37° C.

| SMILES | Ki |
| --- | --- |
| Clc1cc2ccc(NC3=NO[C@@]4(C3)CN3CCC4CC3)cc2s1 [(R)-54, (R)—N-(2-chlorobenzo[b]thiophen-6-yl)-4H-F-azaspiroksoxazole-5,3^1-bicyclo[2.2.2]octan1-3-amine hydrochloride] | 82.7 nM |
| Fc1sc2cc(NC3=NO[C@@]4(C3)CN3CCC4CC3)ccc2c1F [(R)-55, hydrochloride] | 170 nM |
| Cc1csc2cc(NC3=NO[C@@]4(C3)CN3CCC4CC3)ccc12 [(R)-56, (R)—N -(3-methylbenzo[b]thiophen-6-yl)-4H-1′-azaspiro[isoxazole-5,3′-bicyclo[2.2.2]octan]-3-amine hydrochloride] | 51 nM |
| Cc1ccc2cc(NC3=NO[C@@]4(C3)CN3CCC4CC3)ncc2c1 [(R)-59, (R)—N-(7-methylisoquinolin-3-yl)-4H-1′-azaspiro[isoxazole-5,3′-bicyclo[2.2.2]octan]-3-amine hydrochloride] | 145 nM |
| Cc1ccc2cnc(NC3=NO[C@@]4(C3)CN3CCC4CC3)cc2c1 [(R)-60, (R)—N-(6-methylisoquinolin-3-yl)-4H-1′-azaspiro[isoxazole-5,3′-bicyclo[2.2.2]octan]-3-amine hydrochloride] | 102 nM |
| Fc1cc2cnc(NC3=NO[C@@]4(C3)CN3CCC4CC3)cc2cc1F [(R)-61, (R)—N-(6,7-difluoroisoquinolin-3-yl)-4H-1′-azaspiro[isoxazole-5,3′-bicyclo[2.2.2]octan]-3-amine hydrochloride] | 400 nM |
| Clc1cc2cnc(NC3=NO[C@@]4(C3)CN3CCC4CC3)cc2cc1Cl [(R)-62, (R)—N-(6,7-dichloroisoquinolin-3-yl)-4H-1′-azaspiro[isoxazole-5,3′-bicyclo[2.2.2]octan]-3-amine trifluoroacetate] | 47 nM |
| Clc1cc2ccc(NC3=NO[C@@]4(C3)CN3CCC4CC3)cc2o1 [(R)-63, (R)—N-(2-chlorobenzofuran-6-yl)-4H-1′-azaspiro[isoxazole-5,3′-bicyclo[2.2.2]octan]-3-amine hydrochloride] | 54.5 nM |
| Cn1ncc2ccc(NC3=NO[C@@]4(C3)CN3CCC4CC3)cc21 [(R)-64, (R)—N-(1-methyl-1H-indazol-6-yl)-4H-1′-azaspiro[isoxazole-5,3′-bicyclo[2.2.2]octan]-3-amine hydrochloride] | 205 nM |
| Cn1ncc2cc(NC3=NO[C@@]4(C3)CN3CCC4CC3)ccc21 [(R)-65, (R)—N-(1-methyl-1H-indazol-5-yl)-4H-1′-azaspiro[isoxazole-5,3′-bicyclo[2.2.2]octan]-3-amine hydrochloride] | 410 nM |
| Cc1noc2cc(NC3=NO[C@@]4(C3)CN3CCC4CC3)ccc12 [(R)-66, (R)—N -(3-methylbenzo[d]isoxazol-6-yl)-4H-1′-azaspiro[isoxazole-5,3′-bicyclo[2.2.2]octan]-3-amine hydrochloride] | 94.5 nM |
| FC(F)(F)c1cc2ccc(NC3=NO[C@@]4(C3)CN3CCC4CC3)cc2s1 [(R)-67, (R)—N-(2-(trifluoromethyl)benzo[b]thiophen-6-yl)-4H-1′-azaspiro[isoxazole-5,3′-bicyclo[2.2.2]octan]-3-amine hydrochloride] | 425 nM |
| Cc1ccc2nc(NC3=NO[C@@]4(C3)CN3CCC4CC3)ncc2c1 [(R)-70, (R)—N-(6-methylquinazolin-2-yl)spiro[4H-isoxazole-5,3^1-quinuclidine]-3-amine] | 30 nM |
| Cc1nsc2cc(NC3=NO[C@@]4(C3)CN3CCC4CC3)ccc12 [(R)-72, (R)—N-(3-methylbenzo[d]isothiazol-6-yl)-4H-1′-azaspiro[isoxazole-5,3′-bicyclo[2.2.2]octan]-3-amine hydrochloride] | 135 nM |
| Clc1coc2cc(NC3=NO[C@@]4(C3)CN3CCC4CC3)ccc12 [(R)-73-1, (R)—N-(3-chlorobenzofuran-6-yl)-4H-1′-azaspiro[isoxazole-5,3′-bicyclo[2.2.2]octan]-3-amine hydrochloride] | 33 nM |
| Cc1coc2cc(NC3=NO[C@@]4(C3)CN3CCC4CC3)ccc12 [(R)-74, (R)—N-(3-methylbenzofuran-6-yl)-4H-1′-azaspiro[isoxazole-5,3′-bicyclo[2.2.2]octan]-3-amine hydrochloride] | 22.5 nM |
